# Experimental properties from OPERA 2.9

Source: data files of OPERA 2.9 (Mansouri et al.), github.com/kmansouri/OPERA.

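The numbers are reported measurements, compiled and curated for the OPERA QSAR suite. The files give a single number for a compound and property, which may rest on several reports. Method, purity and exact conditions of the single measurements are not given. A value may pool stereoisomers or salt forms, and the file does not say which form was measured. Unmarked limits or estimates from the upstream databases cannot be ruled out.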

Melting points are in °C. The boiling point refers to atmospheric pressure (760 mmHg), by the definition of the set. logP is the log10 of the octanol-water partition coefficient; higher is more lipophilic. Solubility in water is on a log10 molar scale (set defined at 25 °C). Vapor pressure is log10 of mmHg; the set covers 15 to 30 °C, mostly 20 to 25 °C. fu is the fraction unbound in human plasma, from 0 to 1. Intrinsic clearance (human, µL/min per 10^6 hepatocytes): higher is faster turnover, and 0 stands for none detected. "–" marks a cell with nothing listed here.

MP (°C)	bp (°C)	logP (octanol/water)	log solubility (log10 mol/L)	vapor pressure (log10 mmHg)	plasma fu	intrinsic clearance (µL/min/10^6 cells)	structure (SMILES)	name
–	–	–	-4.023	1.202	–	–	C=CCCCCC=C	1,7-Octadiene
–	–	4.26	-3.613	–	–	–	CCCCOc1ccccc1	Butyl phenyl ether
190	–	–	-1.57	–	–	–	NS(=O)(=O)c1cc2c(s1)C(O)CCS2=O (stereo not drawn)	–
–	–	5.89	-7.615	-5.18	–	–	Cc1ccc(Sc2ccc(C(=O)c3ccccc3)cc2)cc1	Methanone, [4-[(4-methylphenyl)thio]phenyl]phenyl-
–	–	–	-7.651	-5.34	–	–	Cc1cc(Sc2cc(C)cc(C(C)(C)C)c2O)c(O)c(C(C)(C)C)c1	6,6'-Di-tert-butyl-2,2'-thiodi-p-cresol
–	–	–	-3.765	–	0.35	–	Nc1nc(/C(=C/CC(=O)O)C(=O)N[C@@H]2C(=O)N3C(C(=O)O)=CCS[C@H]23)cs1	Ceftibuten
–	–	0.4	-3.005	–	–	–	Cc1[nH]c(=O)c(C#N)cc1-c1ccncc1	Milrinone
178	–	-0.14	–	-10.73	–	–	CC(=O)CC(=O)Nc1ccc(NC(=O)CC(C)=O)cc1	Butanamide, N,N'-1,4-phenylenebis[3-oxo-
-59	–	5.8	-5.931	–	–	–	C=C(C)C(=O)OCC1CC2CC1C1CCC(COC(=O)C(=C)C)C21 (stereo not drawn)	–
–	–	-1.8	-2.731	–	0.4	–	CCN[C@H]1CN(CCCOC)S(=O)(=O)c2sc(S(N)(=O)=O)cc21	Brinzolamide
–	–	–	-1.901	-3.238	–	–	C=C(C)C(=O)OCCOCCOCCOC(=O)C(=C)C	Triethylene glycol dimethacrylate
–	–	–	–	–	0.00772	14	CC[C@H](c1ccc(O)cc1)[C@@H](CC)c1ccc(O)cc1	Meso-hexestrol
–	–	–	–	-8.018	0.2	–	COC1=CC(=O)C[C@@H](C)[C@]12Oc1c(Cl)c(OC)cc(OC)c1C2=O	Griseofulvin
–	–	-3.664	-2.208	–	–	–	O=[N+]([O-])c1cc(/N=N/c2ccc(/N=N/c3ccc(S(=O)(=O)[O-])cc3)c(O)c2[O-])c([O-])c([N+](=O)[O-])c1.[Cu+2].[Na+]	C. I. Acid Brown 97
–	–	2.9	-2.76	–	–	–	CC=CC(=O)N(CC)c1ccccc1C	Crotamiton
–	–	–	-7.091	-4.369	–	–	c1ccc(SCCSc2ccccc2)cc1	1,2-Bis(phenylthio)ethane
-32.5	235	–	0.16	–	–	–	O=C(O)/C=C\C(=O)OCCOCCOCCOC(=O)/C=C\C(=O)O	–
110	–	1.46	-1.931	–	–	–	COc1ccc(C)cc1NC(C)=O	Acetamide, N-(2-methoxy-5-methylphenyl)-
140.8	–	3.7	–	–	–	–	CC(=O)OCCN(CCOC(C)=O)c1ccc(N=Nc2ccc([N+](=O)[O-])cc2C#N)cc1	Disperse Red 82

3 of these entries, quoted again:

structure (SMILES)	name	MP (°C)	bp (°C)	logP (octanol/water)	log solubility (log10 mol/L)	vapor pressure (log10 mmHg)	plasma fu	intrinsic clearance (µL/min/10^6 cells)
CCN[C@H]1CN(CCCOC)S(=O)(=O)c2sc(S(N)(=O)=O)cc21	Brinzolamide	–	–	-1.8	-2.731	–	0.4	–
C=C(C)C(=O)OCCOCCOCCOC(=O)C(=C)C	Triethylene glycol dimethacrylate	–	–	–	-1.901	-3.238	–	–
CCCCOc1ccccc1	Butyl phenyl ether	–	–	4.26	-3.613	–	–	–